The values below come from ChEMBL document CHEMBL1121862, “Synthesis of 3-hydroxycyclophosphamide and studies related to its possible role in the metabolism of cyclophosphamide” (1981).

For experiment [1], the system named is Mus musculus. Description: Maximum life span of mice after 150 mg/kg ip administration; Increases.
The test system of experiment [2] is Mus musculus. The experiment in a line: Effect tested against L1210 leukemia cells in mice after 250-30 mg/kg ip administration.

On to `O=P1(N(CCCl)CCCl)OCCCN1O` (configuration not stated), for which, in experiment [1], the ILS is 128%. The Activity in experiment [2] was 1e-05.
